Values of other authors as cited in patent US4555403A, “Pharmacologically active peptides and medicaments containing the same” (priority 1979, dated 1985).

Tested on: Pronase E. Merck
Conditions: short incubation period; cited from earlier work

Substance	pharmacological (opiate-like) activity after treatment in vitro with proteases
methionine-encephalin	lose their pharmacological activity
leucine-encephalin	lose their pharmacological activity
